uPA surface inh = blocks generation of uPA at the cell surface; hit rate 0.31% among 330,000; cell surface uPA generation assay, qHTS; Potency, µM (doses to about 38.3 µM), hits mostly inhibitors; active = well fitted inhibition curve with a large enough effect; inconclusive = small, poorly fitted or top-dose-only effect; inactive = no such curve, though single readings can be large or run the other way; tested in mouse RAW 264.7 cells; also: nearly all actives have a fitted effect of over 55% in size
TDP1 block = inhibitors of human tyrosyl-DNA phosphodiesterase TDP1; hit rate 0.28% among 350,000; Q9NUW8; Potency, µM (top dose mostly 130 µM), most hits filed as inhibitors; recombinant TDP1, AlphaScreen DNA substrate cleavage; also: nearly all actives have a fitted effect of over 40% in size
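Steps: enzyme plus compound, 15 min RT; add biotin/phosphotyrosine-FITC oligonucleotide (15 nM final), react 5 min; add donor/acceptor beads (10 ug/ml final), 10 min; read AlphaScreen. Tdp1 at 1 nM final.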
miR-21 FLuc = miR-21 reporter, rising signal; 340,000 tested, under 10 active; Potency, µM (highest dose often 38.3 µM); HeLa miR-21 FLuc reporter, luciferase, 48 h; active = well fitted rising curve with a large enough effect; inconclusive = small, poorly fitted or top-dose-only effect; inactive = no such curve, though single readings can be large or run the other way;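 further: miR-21 action dims this reporter so a rising signal means less miR-21 action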
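Luminescence from a firefly luciferase reporter carrying a miR-21 binding site downstream, stably expressed under a CMV promoter in HeLa cells that make miR-21 endogenously, reports miRNA modulation after 48 h compound exposure up to approximately 40uM final.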
DT40 TDP1 no CPT = qHTS for Inhibitors of human tyrosyl-DNA phosphodiesterase 1 (TDP1): qHTS in cells in absence of CPT | DT40 Tdp1-/- hTDP1 cells, no CPT, ATP luminescence, 48 h | hit rate 15% among 420,000 | Potency, µM (highest dose often 46.2 µM), most hits filed as inhibitors; also: nearly all actives have a fitted effect of over 55% in size
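A cellular qHTS used chicken DT40 cells lacking endogenous Tdp1 but carrying stably transfected human TDP1. Compounds were applied without camptothecin, and cell growth kinetics were judged by ATP-dependent luminescence after ≥48 hr.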
DT40 TDP1 CPT = DT40-hTDP1 cell growth loss with CPT | chicken DT40 Tdp1-/-;hTDP1 cells + 20 nM CPT, ATP luminescence, 48 h | Potency, µM (doses to about 46.2 µM), usual class: inhibitors | hit rate 12% among 420,000 | AID 686979; also: nearly all actives have a fitted effect of over 55% in size
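Chicken DT40 Tdp1-/- cells complemented with human TDP1, 400 cells/well, exposed to compounds plus 20 nM camptothecin for at least 48 h at 37 C; viability read as ATP content by CellTiter-Glo luminescence.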
Each line names hits and unclear results; the compound was inactive in the other large screens. Shown are actives, neighbours in structure and some others; about 16% of the full set was active somewhere. Unless noted, calls follow the shape of the dose curve; as a rule, active = well fitted curve in the direction sought with a large enough effect; inconclusive = small, poorly fitted or top-dose-only effect, or another doubt; inactive = no such curve, though single readings can be large; an effect the other way counts as inactive or inconclusive.

O=C(N/N=C/c1cc2ccccc2nc1Cl)[C@H]1C[C@@H]1c1ccccc1	DT40 TDP1 no CPT 16µM, DT40 TDP1 CPT 21µM
COc1ccc([N+](=O)[O-])cc1/C=N/NC(=O)/C(=C\c1cccs1)NC(=O)c1ccccc1	DT40 TDP1 no CPT 21µM, DT40 TDP1 CPT inconclusive
O=C(N/N=C/c1cc2ccccc2nc1Cl)/C(=C/c1cccs1)NC(=O)c1ccccc1	DT40 TDP1 no CPT inconclusive, DT40 TDP1 CPT 23µM
CC1(C)Oc2ccc3ccc(=O)oc3c2[C@H](O)[C@H]1O	DT40 TDP1 no CPT inconclusive (no result: miR-21 FLuc)
OC[C@@H](O)C(O)[C@H](O)CO	none (no result: uPA surface inh, TDP1 block, miR-21 FLuc)
Cc1cccc(OCCC(=O)Nc2ccc(C)c(S(=O)(=O)N3CCOCC3)c2)c1	DT40 TDP1 no CPT inconclusive, DT40 TDP1 CPT inconclusive (no result: miR-21 FLuc)
Cc1cccc(OCCC(=O)Nc2ccc(C)c(S(=O)(=O)N3CCCCC3)c2)c1	DT40 TDP1 no CPT 21µM, DT40 TDP1 CPT inconclusive
Cc1cccc(OCCCC(=O)Nc2ccc(Cl)c(S(=O)(=O)N3CCOCC3)c2)c1	DT40 TDP1 no CPT 12µM, DT40 TDP1 CPT 23µM (no result: miR-21 FLuc)
CN(CCOc1ccccc1)c1ccc(S(=O)(=O)N2CCCCC2)cn1	DT40 TDP1 no CPT 21µM, DT40 TDP1 CPT inconclusive
Cc1ccc(C(=O)N(C)CCOc2ccccc2)cc1S(=O)(=O)N1CCCCC1	DT40 TDP1 no CPT inconclusive, DT40 TDP1 CPT 18µM (no result: miR-21 FLuc)
CCOc1ccc(NC(=O)CN2CCN(CC(=O)Nc3ccc(N(CC)CC)cc3)CC2)cc1	none (no result: uPA surface inh)
CN(CC1COc2ccccc2O1)C(=O)c1ccc(Cl)c(S(=O)(=O)N2CCCCCC2)c1 (configuration not stated)	DT40 TDP1 no CPT inconclusive, DT40 TDP1 CPT 16µM (no result: miR-21 FLuc)
CC(C)c1ccc(NC(=O)C2Cc3c(-c4ccc(Cl)cc4)ccnc3O2)cc1 (configuration not stated)	DT40 TDP1 no CPT 9.2µM, DT40 TDP1 CPT 16µM (no result: uPA surface inh, TDP1 block, miR-21 FLuc)
CC(=O)NCCNC(=O)C1Cc2c(-c3ccc(Cl)cc3)ccnc2O1 (configuration not stated)	none (no result: uPA surface inh, TDP1 block, miR-21 FLuc)
O=C(Nc1ccc(Cl)cc1)C1Cc2c(-c3ccc(Cl)cc3)ccnc2O1 (configuration not stated)	DT40 TDP1 no CPT 21µM, DT40 TDP1 CPT 23µM (no result: uPA surface inh, TDP1 block, miR-21 FLuc)
O=C(Nc1ccc(F)c(Cl)c1)C1Cc2c(-c3ccc(Cl)cc3)ccnc2O1 (configuration not stated)	DT40 TDP1 no CPT inconclusive, DT40 TDP1 CPT 16µM (no result: uPA surface inh, TDP1 block, miR-21 FLuc)
Cc1ccc(C)n1-n1c(C)nc2scc(-c3cccs3)c2c1=O	DT40 TDP1 no CPT 18µM, DT40 TDP1 CPT inconclusive
Cc1nc2scc(-c3cccs3)c2c(=O)n1-n1cccc1	DT40 TDP1 no CPT inconclusive
O=C(N1CCN=C1SCc1cccnc1)C12CC3CC(CC(C3)C1)C2	DT40 TDP1 no CPT 15µM, DT40 TDP1 CPT inconclusive
O=C(c1ccco1)N1CCN=C1SCc1cccnc1	none
CCn1cc(S(=O)(=O)c2ccc(OC)cc2)c(=O)c2cc(F)c(N3CCCCCC3)cc21	DT40 TDP1 no CPT inconclusive, DT40 TDP1 CPT inconclusive (no result: uPA surface inh)
CCCn1cc(S(=O)(=O)c2ccc(C)c(C)c2)c(=O)c2cc(F)c(N3CCCCC3)cc21	DT40 TDP1 no CPT inconclusive, DT40 TDP1 CPT inconclusive (no result: uPA surface inh)
CC1CCCCN1c1cc2c(cc1F)c(=O)c(S(=O)(=O)c1ccccc1)cn2Cc1ccccc1 (configuration not stated)	DT40 TDP1 no CPT 8.2µM, DT40 TDP1 CPT 8.2µM (no result: uPA surface inh)
CCn1cc(S(=O)(=O)c2ccc(C)cc2)c(=O)c2cc(F)c(N3CCCCCC3)cc21	DT40 TDP1 no CPT 18µM, DT40 TDP1 CPT 16µM (no result: uPA surface inh)
CCn1cc(S(=O)(=O)c2ccc(OC)cc2)c(=O)c2cc(F)c(N3CCC(C)CC3)cc21	DT40 TDP1 no CPT 26µM, DT40 TDP1 CPT inconclusive (no result: uPA surface inh)
CCc1ccc(S(=O)(=O)c2cn(CC)c3cc(N4CCOCC4)c(F)cc3c2=O)cc1	DT40 TDP1 no CPT inconclusive, DT40 TDP1 CPT 15µM (no result: uPA surface inh)
Cc1cccc(S(=O)(=O)c2cn(Cc3ccccc3)c3cc(N4CCCCC4C)c(F)cc3c2=O)c1 (configuration not stated)	DT40 TDP1 no CPT inconclusive (no result: uPA surface inh)
COC(=O)C[C@H]1c2cc(F)ccc2S(=O)(=O)N1Cc1ccccc1	none (no result: TDP1 block, miR-21 FLuc)
CCn1cc(S(=O)(=O)c2ccc(C)cc2C)c(=O)c2cc(F)c(N3CCCCC3)cc21	DT40 TDP1 no CPT 23µM, DT40 TDP1 CPT inconclusive (no result: uPA surface inh)
Cc1ccc(S(=O)(=O)c2cn(Cc3ccccc3)c3cc(N4CCCC4)c(F)cc3c2=O)cc1	DT40 TDP1 no CPT 5.8µM, DT40 TDP1 CPT 5.8µM (no result: uPA surface inh)
O=c1c(S(=O)(=O)c2ccccc2)cn(Cc2ccccc2)c2cc(N3CCCC3)c(F)cc12	none (no result: uPA surface inh)
Cc1cc(NC(=O)c2ccccc2F)nc2c1c(=O)oc1ccccc12	DT40 TDP1 no CPT inconclusive, DT40 TDP1 CPT inconclusive
NS(=O)(=O)c1cnccc1Nc1cccc(Br)c1	none (no result: TDP1 block, miR-21 FLuc)
COc1ccc2[nH]c(CN3CCN(C(C)C)C(CCO)C3)c(C)c2c1 (configuration not stated)	none
CC(C)=CCN1CCN(Cc2c[nH]c3ccccc23)CC1CCO (configuration not stated)	DT40 TDP1 no CPT inconclusive, DT40 TDP1 CPT inconclusive
COc1ccc2[nH]c(CN3CCN(CC(C)C)C(CCO)C3)c(C)c2c1 (configuration not stated)	DT40 TDP1 no CPT 23µM
CC(C)CN1CCN(Cc2c[nH]c3ccccc23)CC1CCO (configuration not stated)	DT40 TDP1 no CPT inconclusive, DT40 TDP1 CPT 8.2µM (no result: TDP1 block)
CC(C)CCN1CCN(CC(c2ccccc2)c2ccccc2)CC1CCO (configuration not stated)	DT40 TDP1 no CPT 21µM, DT40 TDP1 CPT 23µM
CC(C)CCN1CCN(Cc2ccoc2)CC1CCO (configuration not stated)	none (no result: TDP1 block)
COc1cc(/C=C/C(=O)N(C)CC(=O)Nc2ccccc2Br)cc2c1OCCO2	DT40 TDP1 no CPT inconclusive, DT40 TDP1 CPT inconclusive (no result: miR-21 FLuc)
Cc1sc(NC(=O)CN(Cc2ccccc2)C(=O)C2CC2)c(C(N)=O)c1C	DT40 TDP1 no CPT 4.6µM, DT40 TDP1 CPT 8.2µM
CC(=O)N(CC(=O)Nc1sc(C)c(C)c1C(N)=O)Cc1ccccc1	DT40 TDP1 no CPT inconclusive, DT40 TDP1 CPT inconclusive
Cc1sc(NC(=O)CN(Cc2ccc(F)cc2)C(=O)C(C)(C)C)c(C(N)=O)c1C	DT40 TDP1 no CPT 8.2µM, DT40 TDP1 CPT 13µM
O=S(=O)(NCCOCC(F)(F)C(F)F)c1ccc2oc3ccccc3c2c1	DT40 TDP1 no CPT 13µM, DT40 TDP1 CPT 26µM
CC[C@@]1(C(=O)OC)N[C@H](CN(C)C(=O)COC)[C@@H]2C(=O)N(Cc3ccccc3)C(=O)[C@@H]21	none (no result: miR-21 FLuc)
CC(NC(=O)CCC(=O)c1cccs1)c1ccccc1 (configuration not stated)	none (no result: miR-21 FLuc)
O=C1c2ccccc2C(Nc2cccnc2)N1Cc1ccc2c(c1)OCO2 (configuration not stated)	none

Screening data deposited in PubChem by National Center for Advancing Translational Sciences (NCATS).
